molecular target: T1, mouse GLP-1 receptor endogenously expressed in βTC6 cells (Mus musculus, UniProt O35659); assay: cAMP production functional assay (HTRF), agonist activity at GLP-1R; type: cell-based; details: Table 1
T1 construct: host or cells: βTC6 cells
T1 sequence (O35659 22-463): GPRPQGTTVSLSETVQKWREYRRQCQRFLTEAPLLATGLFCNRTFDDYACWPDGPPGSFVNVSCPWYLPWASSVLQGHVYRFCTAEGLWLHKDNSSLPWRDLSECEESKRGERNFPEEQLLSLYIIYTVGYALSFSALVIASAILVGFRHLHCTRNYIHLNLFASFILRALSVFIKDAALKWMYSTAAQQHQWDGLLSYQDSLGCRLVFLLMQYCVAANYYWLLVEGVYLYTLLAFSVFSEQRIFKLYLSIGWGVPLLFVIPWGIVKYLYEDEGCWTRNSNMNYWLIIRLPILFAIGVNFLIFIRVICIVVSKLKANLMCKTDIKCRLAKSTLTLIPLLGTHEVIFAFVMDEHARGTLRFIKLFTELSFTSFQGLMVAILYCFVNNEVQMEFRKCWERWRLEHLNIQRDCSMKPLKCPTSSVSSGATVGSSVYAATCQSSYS
Description: The agonistic activity of these hybrids were obtained by functional assays using cells expressing the […] and by measuring the receptor-mediated cAMP produced (see supporting information).
In vitro pharmacology (EC50). […] Following incubation, the cells were lysed and the fluorescence acceptor (D2-labeled cAMP) and fluorescence donor (anti-cAMP antibody labeled with europium cryptate) were added.

Which “Potency (%), percentage of potency compare to GLP-1-G^2” value (“Potency (%), percentage” below) does the source give for `CC[C@H](C)[C@H](NC(=O)[C@H](Cc1ccccc1)NC(=O)[C@H](CCC(=O)O)NC(=O)[C@H](CCCCN)NC(=O)[C@H](C)NC(=O)[C@H](C)NC(=O)[C@H](CCC(N)=O)NC(=O)CNC(=O)[C@H](CCC(=O)O)NC(=O)[C@H](CC(C)C)NC(=O)[C@H](Cc1ccc(O)cc1)NC(=O)[C@H](CO)NC(=O)[C@H](CO)NC(=O)[C@@H](NC(=O)[C@H](CC(=O)O)NC(=O)[C@H](CO)NC(=O)[C@@H](NC(=O)[C@H](Cc1ccccc1)NC(=O)[C@@H](NC(=O)CNC(=O)[C@H](CCC(=O)O)NC(=O)CNC(=O)[C@@H](N)Cc1c[nH]cn1)[C@@H](C)O)[C@@H](C)O)C(C)C)C(=O)N[C@@H](C)C(=O)N[C@@H](C)CNC(=O)N[C@@H](C)CNC(=O)N[C@@H](C)CNC(=O)NCC(=O)N[C@@H](CCCNC(=N)N)C(=O)NCC(N)=O` [Compound 19, GG2[A^UA^UA^U]^25-28] here?
The value was 0.07%.

How did the “Potency (%), percentage” value turn out when `CC[C@H](C)[C@H](NC(=O)[C@H](Cc1ccccc1)NC(=O)[C@H](CCC(=O)O)NC(=O)[C@H](CCCCN)NC(=O)[C@H](C)NC(=O)[C@H](C)NC(=O)[C@H](CCC(N)=O)NC(=O)CNC(=O)[C@H](CCC(=O)O)NC(=O)[C@H](CC(C)C)NC(=O)[C@H](Cc1ccc(O)cc1)NC(=O)[C@H](CO)NC(=O)[C@H](CO)NC(=O)[C@@H](NC(=O)[C@H](CC(=O)O)NC(=O)[C@H](CO)NC(=O)[C@@H](NC(=O)[C@H](Cc1ccccc1)NC(=O)[C@@H](NC(=O)CNC(=O)[C@H](CCC(=O)O)NC(=O)CNC(=O)[C@@H](N)Cc1c[nH]cn1)[C@@H](C)O)[C@@H](C)O)C(C)C)C(=O)N[C@@H](C)C(=O)N[C@@H](Cc1c[nH]c2ccccc12)C(=O)N[C@@H](CC(C)C)C(=O)N[C@@H](C)CNC(=O)N[C@@H](C)CNC(=O)N[C@@H](C)CNC(=O)NCC(N)=O` [Compound 21, GG2[A^UA^UA^U]^27-30] was run?
The value was 8%.

How did the “Potency (%), percentage” value turn out when `CC[C@H](C)[C@H](NC(=O)[C@H](Cc1ccccc1)NC(=O)[C@H](CCC(=O)O)NC(=O)[C@H](CCCCN)NC(=O)[C@H](C)NC(=O)[C@H](C)NC(=O)[C@H](CCC(N)=O)NC(=O)CNC(=O)[C@H](CCC(=O)O)NC(=O)[C@H](CC(C)C)NC(=O)[C@H](Cc1ccc(O)cc1)NC(=O)[C@H](CO)NC(=O)[C@H](CO)NC(=O)[C@@H](NC(=O)[C@H](CC(=O)O)NC(=O)[C@H](CO)NC(=O)[C@@H](NC(=O)[C@H](Cc1ccccc1)NC(=O)[C@@H](NC(=O)CNC(=O)[C@H](CCC(=O)O)NC(=O)CNC(=O)[C@@H](N)Cc1c[nH]cn1)[C@@H](C)O)[C@@H](C)O)C(C)C)C(=O)N[C@@H](C)C(=O)N[C@@H](Cc1c[nH]c2ccccc12)C(=O)N[C@@H](C)CNC(=O)N[C@@H](C)CNC(=O)N[C@@H](C)CNC(=O)N[C@@H](CCCNC(=N)N)C(=O)NCC(N)=O` [Compound 20, GG2[A^UA^UA^U]^26-29] was run?
Its value is 0.9%.

Reference: patent publication US11285219B2, “Peptide-oligourea hybrid compounds” (UREKA SARL, priority 2019, dated 2022)
